{"source": "ChEMBL document CHEMBL4024791", "about": "“Identification of Morpholino-2H-pyrido[3,2-b][1,4]oxazin-3(4H)-ones as Nonsteroidal Mineralocorticoid Antagonists” (J Med Chem, 2018)", "biological_target": "T1, Mineralocorticoid receptor (Homo sapiens, UniProt P08235)", "T1 sequence (P08235 whole entry)": "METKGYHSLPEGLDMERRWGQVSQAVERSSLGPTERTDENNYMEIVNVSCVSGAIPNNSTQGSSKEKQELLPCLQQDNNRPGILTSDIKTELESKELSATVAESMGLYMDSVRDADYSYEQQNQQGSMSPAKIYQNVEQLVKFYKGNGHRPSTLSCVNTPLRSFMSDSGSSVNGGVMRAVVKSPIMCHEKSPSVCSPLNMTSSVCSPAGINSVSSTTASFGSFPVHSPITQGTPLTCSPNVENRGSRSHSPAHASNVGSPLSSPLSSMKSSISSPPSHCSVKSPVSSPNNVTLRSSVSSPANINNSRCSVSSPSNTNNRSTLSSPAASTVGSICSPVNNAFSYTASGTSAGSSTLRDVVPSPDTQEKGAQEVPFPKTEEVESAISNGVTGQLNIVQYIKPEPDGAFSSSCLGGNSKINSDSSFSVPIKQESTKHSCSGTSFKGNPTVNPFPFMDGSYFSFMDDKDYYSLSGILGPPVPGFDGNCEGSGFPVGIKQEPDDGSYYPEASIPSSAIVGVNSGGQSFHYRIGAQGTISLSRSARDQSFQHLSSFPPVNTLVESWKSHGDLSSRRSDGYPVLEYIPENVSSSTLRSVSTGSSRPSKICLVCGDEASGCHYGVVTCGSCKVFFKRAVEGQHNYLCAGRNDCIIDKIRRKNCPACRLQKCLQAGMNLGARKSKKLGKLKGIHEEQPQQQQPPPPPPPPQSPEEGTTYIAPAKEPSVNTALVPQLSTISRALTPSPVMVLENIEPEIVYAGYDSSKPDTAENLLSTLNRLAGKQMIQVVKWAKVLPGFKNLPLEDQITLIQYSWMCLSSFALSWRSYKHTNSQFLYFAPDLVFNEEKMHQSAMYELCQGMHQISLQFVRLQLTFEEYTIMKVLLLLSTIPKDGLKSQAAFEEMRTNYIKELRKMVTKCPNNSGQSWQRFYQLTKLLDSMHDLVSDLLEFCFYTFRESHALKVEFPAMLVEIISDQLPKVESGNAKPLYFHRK"}
{"smiles": "C[C@@H]1CN(c2ccc3c(n2)NC(=O)CO3)[C@H](c2cccc(F)c2)CO1", "values": [{"measurement": "IC50", "result": 19, "unit": "nM"}]}
{"smiles": "C[C@@H]1CN(c2ccc3c(n2)NC(=O)CO3)[C@H](c2ccc(F)cc2)CO1", "values": [{"measurement": "IC50", "result": 39, "unit": "nM"}]}
